The values that follow are results of earlier work, collected in article PMC3479662 (Journal of medicinal chemistry, 2012).

Each structure is given as a SMILES string.

For one data set, the target named is A2AAR. To be noted: read-out: Affinity Ki, A2A; human unless noted; ref Kim et al.[40]; cited from earlier work.
In the next data set the target is A3AR. As to conditions: read-out: Affinity Ki, A3; human unless noted; ref de Zwaart et al.[38]; cited from earlier work.

In general, Ki refers to the equilibrium dissociation constant of an inhibitor or competing ligand from its target. Turning to `NCCNC(=O)[C@H]1O[C@@H](n2cnc3c(N)ncnc32)[C@H](O)[C@@H]1O` [Compound 11], the Ki on A2AAR was 46.1 µM.
For the molecule `Nc1ncnc2c1ncn2[C@@H]1O[C@H](C(=O)NC2CC2)[C@@H](O)[C@H]1O` [Compound 16], the Ki on A3AR is 0.108 µM.
